{"sequences": {"note": "The chains behind the UniProt entries cited, without tags or fusion partners. Where a name states a change or a piece, a line headed by the entry shows the natural chain unless it says otherwise.", "UniProt P11235": "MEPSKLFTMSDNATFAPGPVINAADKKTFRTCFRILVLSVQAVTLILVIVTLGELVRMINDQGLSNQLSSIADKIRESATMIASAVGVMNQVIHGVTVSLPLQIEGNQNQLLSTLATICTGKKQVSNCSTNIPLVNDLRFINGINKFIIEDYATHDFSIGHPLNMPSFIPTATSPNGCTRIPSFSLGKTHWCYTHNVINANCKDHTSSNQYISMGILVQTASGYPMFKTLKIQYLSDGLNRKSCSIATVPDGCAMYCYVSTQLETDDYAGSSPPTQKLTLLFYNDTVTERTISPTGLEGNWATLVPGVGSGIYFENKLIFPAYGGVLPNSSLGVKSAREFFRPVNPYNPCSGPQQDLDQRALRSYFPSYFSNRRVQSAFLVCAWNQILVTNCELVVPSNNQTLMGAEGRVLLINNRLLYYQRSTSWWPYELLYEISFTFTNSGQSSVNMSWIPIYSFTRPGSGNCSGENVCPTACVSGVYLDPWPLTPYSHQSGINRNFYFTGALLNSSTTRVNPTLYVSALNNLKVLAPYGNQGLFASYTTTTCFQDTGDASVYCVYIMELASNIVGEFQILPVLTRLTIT", "UniProt P08492": "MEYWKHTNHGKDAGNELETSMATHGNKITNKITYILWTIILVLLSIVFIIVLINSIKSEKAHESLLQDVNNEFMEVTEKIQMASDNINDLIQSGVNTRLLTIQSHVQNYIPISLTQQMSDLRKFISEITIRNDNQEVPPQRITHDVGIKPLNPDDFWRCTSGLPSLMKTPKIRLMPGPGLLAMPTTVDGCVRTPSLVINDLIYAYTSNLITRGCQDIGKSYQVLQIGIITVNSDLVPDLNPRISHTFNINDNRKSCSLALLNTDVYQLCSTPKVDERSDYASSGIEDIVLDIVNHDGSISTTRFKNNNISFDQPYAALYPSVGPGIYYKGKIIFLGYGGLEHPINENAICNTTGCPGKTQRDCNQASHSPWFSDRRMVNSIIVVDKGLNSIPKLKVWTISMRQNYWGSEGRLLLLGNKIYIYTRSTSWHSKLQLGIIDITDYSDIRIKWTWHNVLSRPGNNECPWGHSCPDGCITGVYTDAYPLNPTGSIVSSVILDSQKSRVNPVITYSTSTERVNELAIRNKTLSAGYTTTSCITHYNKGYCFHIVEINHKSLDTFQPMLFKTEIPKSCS"}, "source": "patent US6420552B1", "about": "“Syntheses of 4-alkyl chromogenic glycosides and 7-alkyl chromogenic glycosides of N-acetylneuraminic acids” (priority 1999, dated 2002)", "origin": "cited, not measured here", "key": {"mumps neuraminidase": {"biological_target": "mumps neuraminidase (Mumps virus genotype B, UniProt P11235)", "conditions": "substrate activity, result in words"}, "[1]": {"biological_target": "enzyme of parainfluenza type 3 (Human parainfluenza 3 virus, UniProt P08492)", "conditions": "substrate activity, result in words"}}}
{"substance": "5-bromo-3-indolyl 4-O-methyl Neu5Ac ketoside", "values": [{"measurement": "hydrolysis / colour development by neuraminidase activity of mumps", "setting": "mumps neuraminidase", "result": "acted upon"}, {"measurement": "hydrolysis / colour development by the enzyme of parainfluenza type 3", "setting": "[1]", "result": "not significantly"}]}
